# Reference: PubChem BioAssay AID651640 (Broad Institute, 2012)
# Only a part is listed here, and it is no random draw. Records with an inconclusive call do not appear. Calls of active or inactive are those of the source. No stated cut-off is given here; in the data, active means CPE inhibition above about 20% (passing the limit was not always enough); inconclusive means no clear call, values can overlap the other calls; tested in BHK-21 cells.
# Experiment: inhibitors of DENV2 cytopathic effect, primary screen, cell-based, plate reader, single concentration (AID 651640);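 further: 0% = median of neutral control wells and 100% = median of positive control wells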
# Conditions: DENV2-infected cells, cytopathic effect rescue, at 9.99 µM, active compounds read high
row,SMILES,CPE inhibition
1,COc1ccccc1OP(=O)(Nc1ccc(C)cn1)Oc1ccccc1OC,inactive: 17.1%
